## Yeast mating assay 2: variants of the scFv Ab-91

Target peptide (SARS-CoV-2 spike, HR2 region): PDVDLGDISGINAS

Parent scFv Ab-91: VL joined to VH by three GGGGS repeats. Changes lie in the heavy chain CDRs alone.
VL: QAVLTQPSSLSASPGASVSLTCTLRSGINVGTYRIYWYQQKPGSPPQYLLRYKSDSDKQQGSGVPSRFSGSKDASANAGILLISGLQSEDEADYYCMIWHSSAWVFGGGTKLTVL
VH: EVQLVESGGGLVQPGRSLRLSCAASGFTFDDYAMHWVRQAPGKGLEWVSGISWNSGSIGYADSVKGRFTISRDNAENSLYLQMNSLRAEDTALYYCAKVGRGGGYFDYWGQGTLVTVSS

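AAYL51 was designed without a model: most single CDR substitutions and a random sample of double and triple ones. The assay is AlphaSeq: two haploid yeast populations carry antibody and antigen on their surface. Pairs that bind mate more often; barcode pairs of the diploids are counted by sequencing. A regression on co-assayed BCL2-family reference pairs converts the normalised counts of each replicate to an apparent Kd. Mating was done three times.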

Substitutions are numbered in sequence along the VH above, starting at 1 (not Kabat). Every variant below is changed at G26 of the VH (sequential numbering). The Kd shown is the geometric mean over detected replicates; a lower Kd is a better binder. Where no diploid with the target was found in any replicate, the entry reads "nd": below detection, most likely a poor binder, though not proof of it. Nonspecific signal, from three strains lacking the peptide, appeared in 21% of pairings of library AAYL51, centred on 34 µM (5% of these signals below 1.8 µM); values are not corrected for it.

For G26V/A61V/S63H, the assay gave nd (0 of 3 replicates). The variant G26F/D31C/G100M gave nd (0 of 3 replicates). The variant G26C/G50R/S63P gave nd (0 of 3 replicates). The variant G26M/D30G/N54T gave nd (0 of 3 replicates). The variant G26T/F27S/T28V gave 270 µM (2 of 3 replicates). With G26C/W53P/G102E the result was 340 nM (3 of 3 replicates). The variant G26P/R101D/Y108N gave nd (0 of 3 replicates). The variant G26P/S63D/G100E showed 12 µM (1 of 3 replicates). With G26T/S52V/Y105G the result was 9.0 µM (1 of 3 replicates).

For G26R/T28W/S57G, the assay gave 1.8 mM (2 of 3 replicates). The variant G26S/G56N/Y108L showed 32 nM (3 of 3 replicates). The variant G26S/G59I/G102N gave nd (0 of 3 replicates). With G26N/T28W/S55P the result was 150 µM (3 of 3 replicates). The variant G26L/M34D showed 190 µM (2 of 3 replicates). The variant G26Q/F27W/K65H showed 350 µM (2 of 3 replicates). For G26H/T28S/G56Y, the assay gave 230 µM (3 of 3 replicates). The variant G26M/S55C/S63D showed nd (0 of 3 replicates). For G26P/F27Q/D62Y, the assay gave 76 µM (1 of 3 replicates).

The variant G26D/Y105G showed 17 µM (1 of 3 replicates). The variant G26A/F29G/D30V gave nd (0 of 3 replicates). The variant G26N gave nd (0 of 3 replicates). With G26S/T28Y/D62S the result was nd (0 of 3 replicates). The variant G26M/W53Q/R101V showed 1.1 µM (2 of 3 replicates). With G26F/I51N/D107Q the result was 150 µM (2 of 3 replicates). With G26W/F27A/S55Q the result was nd (0 of 3 replicates). The variant G26E/A61S showed nd (0 of 3 replicates). For G26S/D31T/G100N, the assay gave 720 nM (3 of 3 replicates).

With G26D/A61V/K65S the result was nd (0 of 3 replicates). With G26Y/Y32G/A61Y the result was nd (0 of 3 replicates). With G26Y/I58H/G103F the result was nd (0 of 3 replicates). For G26W/I58G, the assay gave nd (0 of 3 replicates). With G26T/F27Q/G102C the result was 52 µM (2 of 3 replicates). With G26C/G50Q/S55C the result was 81 µM (1 of 3 replicates). With G26K/T28M/Y105T the result was 1.0 mM (1 of 3 replicates). With G26F/S52V/G102C the result was nd (0 of 3 replicates). The variant G26N/D30Y/I58F showed 12 µM (2 of 3 replicates).

The variant G26P/M34W/F106T gave 1.1 mM (1 of 3 replicates). The variant G26R/W53R showed nd (0 of 3 replicates). For G26R/S63H/V64M, the assay gave 120 µM (1 of 3 replicates). For G26L/H35P/S63D, the assay gave nd (0 of 3 replicates). The variant G26V/A33L/I58C gave 170 µM (1 of 3 replicates). With G26A/S52V/N54L the result was nd (0 of 3 replicates). With G26M/A33D the result was 480 µM (3 of 3 replicates). With G26P/A33N/Y108I the result was 36 µM (2 of 3 replicates). The variant G26P/F29Y/G103I showed 230 µM (1 of 3 replicates).

The variant G26D/R101A showed 56 µM (1 of 3 replicates).

Excerpt, the first 8 entries:

With G26V/A61V/S63H the result was nd (0 of 3 replicates).
With G26F/D31C/G100M the result was nd (0 of 3 replicates).
With G26C/G50R/S63P the result was nd (0 of 3 replicates).
With G26M/D30G/N54T the result was nd (0 of 3 replicates).
With G26T/F27S/T28V the result was 270 µM (2 of 3 replicates).
With G26C/W53P/G102E the result was 340 nM (3 of 3 replicates).
With G26P/R101D/Y108N the result was nd (0 of 3 replicates).
With G26P/S63D/G100E the result was 12 µM (1 of 3 replicates).

From the AlphaSeq antibody data of Engelhart et al. 2022 (doi:10.1038/s41597-022-01779-4), copy in the FLAb collection.